Measurements reported in PubChem BioAssay AID1347071 (National Center for Advancing Translational Sciences (NCATS), 2019).
Only a part is listed here, and it is no random draw. Activity calls are given as the source filed them. Calls follow the shape of the dose curve; as a rule, active = well fitted activation curve with a large enough effect; inconclusive = small, poorly fitted or top-dose-only effect; inactive = no such curve, though single readings can be large or run the other way.

assay: qHTS for compounds that reverse cellular toxicity of Amyloid beta (A-beta) peptide in yeast: Primary Screen; conditions: yeast expressing A-beta42, growth rescue, OD600, 48 h, 0% DMSO, 100% iron-clioquinol control; at 46.1 µM (top of the series); also: nearly all actives have a fitted effect of over 55% in size
Excerpt: The A-beta peptide is produced by the processing of the amyloid precursor protein (APP) by two proteases, beta and gamma secretases. […] A-beta42 is regarded as the most amyloidogenic form due to its hydrophobicity; however, precisely how A-beta42 induces neurotoxicity is unclear. To understand further this biology and its potential therapeutic implications for human neurodegenerative disease, a quantitative high-throughput screen for compounds that reverse the cellular toxicity of the A-beta peptide was developed. A yeast based screen was used because it recapitulates the salient feature of protein mis-folding disorder accurately. This cell-based phenotypic screen provides a significant, unbiased advantage by letting the compounds and models inform us which proteins or pathways are most relevant. The ideal chemical candidates would therefore have activity in both our primary yeast and secondary neuronal toxicity assays, as well as in mouse models. They will be valuable tools for dissecting diverse protein homeostasis pathologies and could potentially become the focus for future pre-clinical development. For this luminescence assay, inhibition of A-beta rescues the toxic effect in the yeast cell, resulting in increase of signals and the desired phenotype of "Activator". This screen is run against the Molecular Libraries Small Molecule Repository (MLSMR) and the NCGC Sytravon Library Collection.
NIH Chemical Genomics Center [NCGC]
NIH Molecular Libraries Probe Centers Network [MLPCN]
Assay Submitter (PI): Susan Lindquist, Whitehead Institute, Massachusetts Institute of Technology
[1] Vassar R,et al (1999). Beta-secretase cleavage of Alzheimer's amyloid precursor protein by the transmembrane aspartic protease BACE. Science. 286: 735-741.
[2] Yan R, et al (1999). Membrane-anchored aspartyl protease with Alzheimer's disease beta-secretase activity. Nature. 402: 533-536.
Two and a half microliter / well of yeast growth medium were dispensed in a 1536 assay plate. Compounds were pinned using the Kalypsys robotic system followed by addition of 2.5 uL / well yeast solution. The assay plates were incubated at 30 C. After 48 hr, the absorbance signal at 600 nm was obtained using the PerkinElmer ViewLux plate reader to assess yeast growth. The data was normalized to the positive control of an equimolar mixture of ferric chloride (FeCl3) and clioquinol and to the negative control DMSO.

SMILES	growth rescue
CC1CCN(C(=O)Oc2c(Cl)cc(Cl)c3cccnc23)CC1	inactive: -2.66%
c1cc(-c2nn[nH]n2)ccc1-c1nn[nH]n1	inactive: -0.0346%
CC(C)C(=O)NC(Sc1ccccc1)C(Cl)(Cl)Cl (configuration not stated)	inactive: -15.2%
c1nnnn1CCn1cnnn1	inactive: 3.65%
COc1ccc(N)c([N+](=O)[O-])c1[N+](=O)[O-]	inactive: 3.27%
Nc1ccc(CCCCOc2ccccc2)cc1	inactive: 3.08%
O=P(Nc1ccccn1)(c1ccc(Br)cc1)c1ccc(Br)cc1	inactive: 6.99%
CN(C)C1(CNC(=O)c2ccc(Cl)c(S(N)(=O)=O)c2)CCCCC1	inactive: 2.68%
C[C@H]1OP(=O)(Oc2ccccc2)[C@H](O)[C@H](O)[C@H]1N=[N+]=[N-] (some centres not stated)	inactive: -12.7%
O=P(Nc1nc2ccccc2s1)(c1ccccc1)c1ccccc1	inactive: 8%
O=[N+]([O-])c1ccc(O)c(/C=N/Nc2ccc([N+](=O)[O-])cc2[N+](=O)[O-])c1	inactive: -68.3%
O=[N+]([O-])c1ncn(CCn2cnc([N+](=O)[O-])n2)n1	inactive: 2.97%
O=[As](O)(c1ccccc1)c1ccc(O)cc1	inactive: -9.15%
C(Cc1nn[nH]n1)Cc1nn[nH]n1	inactive: 6.15%
Nc1ccc([As](=O)(O)c2ccc([N+](=O)[O-])cc2)cc1	inactive: -9.37%
O=C(OC1CN2CCC1CC2)c1cccc(Cl)c1 (configuration not stated)	inactive: 0.9%
CCNC(=S)/N=C(\N)N[N+](=O)[O-]	inactive: -0.255%
O=C(NC1CCS(=O)(=O)C1)NP(=S)(Oc1ccccc1)Oc1ccccc1 (configuration not stated)	inactive: 2.19%
Cc1ccc(NP(=O)(Oc2cccc(C)c2)Oc2cccc(C)c2)nc1	inactive: 0.325%
c1ccc(-c2nn[nH]n2)c(-c2nn[nH]n2)c1	inactive: -3.41%
O=P1(N(CCCl)CCCl)OCCC2CCCCN21 (configuration not stated)	inactive: 3.11%

SMILES	growth rescue
CC(=O)NC(SC(=S)N(CC(C)C)CC(C)C)C(Cl)(Cl)Cl (configuration not stated)	inactive: 26.7%
Cc1ccc(OP(=O)(Nc2ccccn2)Oc2ccc(C)cc2)cc1	inactive: -54.8%
COC(=O)c1cc2c(s1)N=C(c1ccccc1)N(C)P2(=O)N1CCOCC1 (configuration not stated)	inactive: 15%
CCC(=O)N1C2C3N(C(=O)CC)C1C1N(C(=O)CC)C(C(N1C(=O)CC)N3C(=O)CC)N2C(=O)CC	inactive: 4.14%
O=C(OC1CN2CCC1CC2)c1ccccc1 (configuration not stated)	inactive: -16%
O=c1c2cc([N+](=O)[O-])ccc2[nH]c2c([N+](=O)[O-])cc([N+](=O)[O-])cc12	inactive: -93.7%
CN(C)C(=O)Oc1noc2ccccc12	inactive: -16.8%
CC(NC(=O)COC(=O)C(O)(c1ccccc1)c1ccccc1)c1ccccc1 (configuration not stated)	inactive: 12.3%
Cc1ccccc1OP(=O)(Nc1ccccn1)Oc1ccccc1C	inactive: 13.8%
CCOc1ccc(C2=NCC(CBr)S2)cc1 (configuration not stated)	inactive: 2.72%
O=P1(Nc2nc3ccc(Cl)cc3s2)COc2ccccc2O1 (configuration not stated)	inactive: -9.25%
CCc1cc(O)c([N+](=O)[O-])c(C)c1[N+](=O)[O-]	inactive: -92.5%
CC(C)(C)C(=O)NC(Sc1ccccc1)C(Cl)(Cl)Cl (configuration not stated)	inactive: 8.77%
COC(=O)C1(C)COP(=O)(NCc2ccccc2)OC1 (configuration not stated)	inactive: -5.24%
CC(=O)c1ccc(N2CC2c2ccncc2)cc1 (configuration not stated)	inactive: -0.913%
N#C/C(=C\c1ccc(N(CCBr)CCBr)cc1)C(N)=O	inactive: -7.9%
C[C@H]1OP(=O)(Oc2ccccc2)C[C@@H]2O[C@@H]21 (some centres not stated)	inactive: 1.59%
C[C@@H]1C=CCP(=O)(Oc2ccccc2)O1 (some centres not stated)	inactive: 2.75%
Cc1ccccc1CN(C)C(=O)COC(=O)C(O)(c1ccccc1)c1ccccc1	inactive: -10.7%
CC(=O)Nc1ccc(Oc2c([N+](=O)[O-])cc([N+](=O)[O-])cc2[N+](=O)[O-])cc1	inactive: 2.43%
CC(=O)Nc1ccc([As](=O)(O)O)c(O)c1	inactive: 5.95%
